This note sets out measurements from publication PMC12009342 (Communications Biology, 2025).

This assay addresses T1, recombinant human EGFR (extracellular domain with C-terminal 6-His tag) (Homo sapiens, UniProt P00533).
T1 construct: also called recombinant monomeric EGFR; source: ExpiCHO, transient transfection, purified (HisTrap Excel, Sephacryl S-200 SEC); not shown: His6, C-terminal, kept
The experiment in a line: BLI; BLItz; His-tagged antigen captured on Anti-Penta-HIS (HIS1K) biosensor at 25 ng/µL for 300 s; Fab in solution at 4 concentrations; association 180 s, dissociation 300 s in PBS. The following applies: both partners purified. (In general: In BLI a coated tip is dipped into the sample, and binding shifts an interference pattern.)

B1: NC-Cow1 Fab ulCDR-swap variant var3 (ulCDR of 60E11) (Fab)
VH: QVQLRESGPSLMKPSQTLSLTCTVSGSSLNDKSVGWVRQAPGKALQWLGSVDTSGNTDYNPGLKSRLSITKDNSKSRISLTVTGMTTEDSATYYCITVHQRTRKTCPDGWRDGSDCPYGHRCGDYDCCGYGCYDGRGTNRFTGVVESYTYEWYVDAWGQGLLVTVSS
VL: SYELTQPSSVSGSLGQRVSVTCSGSSSNVGNGYVSWYQLIPGSAPRTIIYGDTSRASGVPERFSGSRSGNTATLTISSLQAEDEADFFCASPDDSSSNAVFGSGTTLTVL
With B1, the Kd (as a rule, the equilibrium constant for the complex coming apart) worked out at 14 nM.

B2: NC-Cow1 Fab ulCDR-swap variant var4 (ulCDR of 60H05) (Fab)
VH: QVQLRESGPSLMKPSQTLSLTCTVSGSSLNDKSVGWVRQAPGKALQWLGSVDTSGNTDYNPGLKSRLSITKDNSKSRISLTVTGMTTEDSATYYCITVHQKTNKLKSCPDGYTSGVECRFRGYTCANDGCWRVCSFTTCSGWMPASDTYRYEYHVDAWGQGLLVTVSS
VL: SYELTQPSSVSGSLGQRVSVTCSGSSSNVGNGYVSWYQLIPGSAPRTIIYGDTSRASGVPERFSGSRSGNTATLTISSLQAEDEADFFCASPDDSSSNAVFGSGTTLTVL
As to B2, the dissociation constant Kd is 43 nM.
